# According to patent US6521751B1, “Recombinant nucleic acid sequences and methods for determining both genotoxicity and mutagenicity of a sample and the kinetics of the genotoxicity” (Vlaamse Instelling voor Technologisch Onderzoek (VITO), priority 1998, dated 2003):
# Assays:
# [1] = test system: novel biosensor systems in E. coli and in S. typhimurium strains; experiment: Subject SOS promoter-lux systems (general statements); conditions: from a concentration of 7,5 ng/ml
# E. coli (sfiA-lacZ) = conditions: cited from earlier work
structure (smiles),measurement,setting,value
CO[C@@]12[C@H](COC(N)=O)C3=C(C(=O)C(C)=C(N)C3=O)N1C[C@@H]1N[C@@H]12 [Mitomycin C],induction ratios,[1],higher than 2
same,SOS (result),E. coli (sfiA-lacZ),pos
